scFv variants of Ab-14 (light chain) against a SARS-CoV-2 spike peptide

Target peptide (SARS-CoV-2 spike, HR2 region): PDVDLGDISGINAS

Ab-14 is the parent antibody, in scFv form: VH, then a 15-residue (Gly4Ser)3 linker, then VL. The heavy chain is unchanged in all variants.
VH: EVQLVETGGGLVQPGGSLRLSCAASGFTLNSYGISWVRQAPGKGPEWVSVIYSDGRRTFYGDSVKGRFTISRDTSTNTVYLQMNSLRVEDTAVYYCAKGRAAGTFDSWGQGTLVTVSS
VL: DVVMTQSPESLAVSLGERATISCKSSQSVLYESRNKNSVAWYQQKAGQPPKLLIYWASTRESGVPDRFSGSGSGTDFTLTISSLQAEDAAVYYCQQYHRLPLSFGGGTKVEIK

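AAYL50 was designed without a model: most single CDR substitutions and a random sample of double and triple ones. The scFvs were displayed on barcoded MATa yeast, the peptide on MATalpha yeast. Pairs that bind mate more often; barcode pairs of the diploids are counted by sequencing. Each replicate has its own calibration line, from reference interactions of the BCL2 family. Each pool was mated in three replicate cultures.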

Each variant is given by its three light chain CDRs, as the data file delimits them; those of the parent are KSSQSVLYESRNKNSVA, WASTRES, QQYHRLPLS. Numbers give log10(Kd / nM), so 0 is 1 nM and 3 is 1 µM. Smaller is tighter. Replicates are averaged; those with no signal do not enter the mean. An entry "nd" has no value in the source: the pair was not observed among the diploids in any replicate. This suggests poor binding but is not conclusive. Background: pairings of library AAYL50 with three empty control strains gave a value in 18% of cases (median 4.19, 5th percentile 2.99). Values in that range, when seen in few replicates, are hard to tell from nonspecific mating. For each scFv, signals with the empty controls are counted beside the result.

CDR-L1,CDR-L2,CDR-L3,mean log10 Kd (nM),detected,control signals
GSSQWVLYESRNKNSVA,WASTRES,QQYHFLPLS,nd,0/3,0/9
VSSQSVLYENRNKTSVA,WASTRES,QQYHRLPLS,2.47,3/3,1/9
KSSPSVLYESRNKNSVA,WISTRKS,QQYHRLPLS,4.17,3/3,1/9
WSSQSVLYEERNKNSVA,WASTRES,QQYHELPLS,nd,0/3,0/9
KSSQSVLYESRNKNSVA,WASIRES,AQYHRLPLS,3.16,3/3,6/9
KSSQSVLYESINKNSVA,WASTREQ,QQYRRLPLS,nd,0/3,0/9
KSSQSVLYESGNKNSVA,WASTRES,QQYHILPLA,3.19,3/3,4/9
KSSQQVLYESRNKNSRA,WASNRES,QQYHRLPLS,3.52,1/3,1/9
KSSQSVLYVSRNKNIVA,WASTRES,QQYHRLMLS,3.25,1/3,1/9
KSSQSVLYENRNKNSVA,WASTRES,QTYIRLPLS,nd,0/3,1/9
KSSQSVLAESTNKNSVA,WASTRES,QAYHRLPLS,0.22,3/3,1/9
KSVQSVLYESRNKNSVA,QASTRES,QQYHRSPLS,1.01,3/3,6/9
KSSQSVRYESRNKNSVA,WASTRES,NQYTRLPLS,nd,0/3,1/9
KSSQSALYESRNKTSQA,WASTRES,QQYHRLPLS,nd,0/3,0/9
KSSQSVLYESRNKNSVA,WASTRES,WQYHRLPLY,nd,0/3,0/9
ILSQSVLYESRNKNGVA,WASTRES,QQYHRLPLS,0.72,3/3,0/9
KSSQSSLYESRNKNSMA,WASTRES,QQYHRPPLS,nd,0/3,0/9
KSSQSVLYESRNKNSYA,WASTWES,QQYHYLPLS,3.91,1/3,2/9
KSVQSVLYESRNKNSVA,WASTREF,QQYSRLPLS,1.34,3/3,1/9
HSSQSVFYESRNKNSVA,WASTRES,QQYHRLPPS,1.20,3/3,6/9
KSGQSVLYESRNKNSVK,WASTRES,QQYHRLILS,5.63,2/3,4/9
KSSQFVLYESRNKNSVA,WASTEES,QQYHRLPLS,nd,0/3,0/9
KSTQSVLYISRNKNSVA,WASTRES,YQYHRLPLS,3.43,1/3,1/9
KSSQSVLYESRNKNSVA,MASTRES,QLYHRLCLS,1.09,3/3,1/9
KSNQSVLYMSRNKNSVA,WASTTES,QQYHRLPLS,nd,0/3,3/9
KSSQSVLYESRHKPSVA,WASARES,QQYHRLPLS,3.87,1/3,2/9
KSSQSYLYESRNKSSMA,WASTRES,QQYHRLPLS,2.47,3/3,2/9
KSPQSVLYESRNKNWVA,WASTRES,QQYHVLPLS,2.22,1/3,0/9
IWPQSVLYESRNKNSVA,WASTRES,QQYHRLPLS,nd,0/3,3/9
KSSQSVWYEDRNKNSVA,WASTRES,QQYHRLPLS,0.39,3/3,1/9
GSSQSVLYESRHKNSVA,WASTRES,QQYHKLPLS,3.57,3/3,2/9
KYSQSVLDESRNKNKVA,WASTRES,QQYHRLPLS,1.13,3/3,5/9
KSSQSVLYESRNKNSVA,WCSTRES,QQYHVLPLS,4.95,1/3,0/9
KSSQSVLYSHRNKNSVA,WASTRES,PQYHRLPLS,nd,0/3,0/9
KSSQSVMYESRNKNSVA,WATTRES,QEYHRLPLS,1.37,3/3,0/9
KSSQSVLYESRNKNSVA,RASTREE,QQYHRLFLS,nd,0/3,0/9
KSSQSVLYESRNKNSVA,WASLIES,QQYHRLTLS,nd,0/3,1/9

Further variants, results first:

mean log10 Kd (nM),detected,control signals,CDR-L1,CDR-L2,CDR-L3
2.94,3/3,2/9,KSSQSVLRESRNKNSVA,WASTRES,QQYYRLDLS
2.02,3/3,1/9,KSSQSVTYESRNKNSVA,WASTRES,QSYGRLPLS
1.09,3/3,4/9,KSSQSGLYESRNKNTVA,WASTRES,QQYHRLPLL
1.57,3/3,2/9,KSSQSVLYESRNKDSVA,WASIRES,QQYHRLPLL
1.96,3/3,4/9,KSSQSVLYEYRNKNSVA,WASTREC,QQYHRLPLS
2.48,1/3,0/9,KSSQSVLYQSRNKNSVA,WASTMES,QDYHRLPLS
3.91,3/3,1/9,KSSQSVLYDSRNKNSVA,WASTRPS,QQYHRKPLS
2.65,3/3,0/9,KSSHSVMYESRNKNSVA,WASTRES,QQYHRLPLS
1.83,3/3,0/9,KSSQSVLYEFDNKNSVA,WASTRES,QVYHRLPLS
1.05,3/3,1/9,KHSQSVLYESRNKNSVA,WASTRYS,QQYHRLPAS
3.73,2/3,1/9,KSSQSVLYESRNKNIVA,KASTRES,QQYHRLPIS
nd,0/3,4/9,DSMQSVLYESRNKNSVA,WASTRES,QQWHRLPLS
3.40,1/3,0/9,KSSQSVLYESRNTNSVA,WASTREI,QQYIRLPLS
0.94,3/3,0/9,KSSKSVLPESRNVNSVA,WASTRES,QQYHRLPLS
2.13,3/3,0/9,KSSQSVLYEARNKNSVA,YASTRES,QQYHRLPLS
1.28,3/3,1/9,KHSQSVLYETRNKNSVA,WASTRES,QQYHRLPLS
nd,0/3,0/9,KSSQSVLYESRNKNWVA,WASTRQS,QQYHRLPLS
3.65,1/3,0/9,KSSQSVDYESRNKNSSA,WASTRES,QQYHRLPVS
6.26,2/3,4/9,KSSQSVLYESRNKNEVA,WASTREE,YQYHRLPLS
nd,0/3,1/9,KSSQSVLYESRNKNSVA,WTSTYER,QQYHRLPLS
nd,0/3,0/9,KSSQSVLYESRNKNSFA,WASNRES,QQYHRLPLS
2.47,3/3,3/9,KSWQSVLYESHNKNSVA,WASTRES,QQYHRLPLS
nd,0/3,0/9,KSFQSVLYESRNKNSVA,WASTRES,QQYHRLELS
0.99,3/3,2/9,KSSSSVLYESRNGNSVA,WASTRES,QQYGRLPLS
2.06,3/3,2/9,KSSQSVLYESDNKNMVA,WARTRES,QQYHRLPLS
nd,0/3,1/9,KSNQSVLYESRNKNSVA,WASTEES,YQYHRLPLS
nd,0/3,0/9,KSSQSVLYESRPKNSVA,WASTREP,QQYHDLPLS
3.63,2/3,1/9,ISSQSVLYESRNKNMVA,WASTRES,QFYHRLPLS
0.95,3/3,3/9,KSSQSVLYDSQTKNSVA,WASTRES,QQYHRLPLS
0.97,3/3,1/9,KSSQSVLYEIRNWNSVA,RASTRES,QQYHRLPLS
nd,0/3,3/9,KSSQHCLYESRNKNSVA,WASTRES,QQYHRYPLS
1.62,3/3,0/9,KWSLSVLYESRNKNSVA,WASTRES,QQYHRLPLS
nd,0/3,3/9,WSSQSVLYEQRNKNSVA,WASTREC,QQYHRLPLS
nd,0/3,0/9,KSSQSVLYESRNKNSVA,WASTRES,QQYHCLPLF
5.20,1/3,3/9,KSSQSVLYESRNKNSVA,WASTQES,QQYHRLAQS
1.93,3/3,1/9,KSSQSVLYESDNINSVA,WASTRES,QGYHRLPLS
nd,0/3,0/9,KSSQSVKEESRNKNLVA,WASTRES,QQYHRLPLS

Extract of 7 entries:

CDR-L1,CDR-L2,CDR-L3,mean log10 Kd (nM),detected,control signals
KSSQSYLYESRNKSSMA,WASTRES,QQYHRLPLS,2.47,3/3,2/9
KSSQSVLYESDNINSVA,WASTRES,QGYHRLPLS,1.93,3/3,1/9
KSSQSVRYESRNKNSVA,WASTRES,NQYTRLPLS,nd,0/3,1/9
KSSQHCLYESRNKNSVA,WASTRES,QQYHRYPLS,nd,0/3,3/9
KSSQSVLYDSQTKNSVA,WASTRES,QQYHRLPLS,0.95,3/3,3/9
KSSQSVLYESRNKNSVA,RASTREE,QQYHRLFLS,nd,0/3,0/9
KSSQSVLYESRNKNSYA,WASTWES,QQYHYLPLS,3.91,1/3,2/9

For reference, the parent read 0.65 as the reference entry and 1.68 as a member of this library.

Reference: Engelhart et al. 2022, doi:10.1038/s41597-022-01779-4. File: FLAb, binding data.